Measurements taken from patent US4668689A, “Glutarimide derivatives for treating oestrogen-dependent tumors” (National Research Development Corporation, priority 1984, dated 1987).

By UniProt entry, the sequences of proteins in these tests, tags left out. Where a name states a change or a piece, a line headed by the entry shows the natural chain unless it says otherwise.
UniProt P11511: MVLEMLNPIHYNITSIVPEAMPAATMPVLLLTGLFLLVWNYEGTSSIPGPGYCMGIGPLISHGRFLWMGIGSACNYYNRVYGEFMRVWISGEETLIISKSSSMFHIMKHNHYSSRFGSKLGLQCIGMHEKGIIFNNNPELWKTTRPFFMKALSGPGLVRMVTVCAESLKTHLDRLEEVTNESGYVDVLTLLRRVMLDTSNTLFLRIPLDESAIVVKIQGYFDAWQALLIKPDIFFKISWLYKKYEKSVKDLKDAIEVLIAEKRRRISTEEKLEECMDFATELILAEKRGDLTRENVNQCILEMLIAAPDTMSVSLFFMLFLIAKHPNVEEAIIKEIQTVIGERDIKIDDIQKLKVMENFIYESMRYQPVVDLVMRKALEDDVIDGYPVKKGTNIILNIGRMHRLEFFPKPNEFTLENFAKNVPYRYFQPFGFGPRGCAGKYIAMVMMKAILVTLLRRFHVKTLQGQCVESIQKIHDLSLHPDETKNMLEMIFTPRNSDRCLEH

What was measured:
aromatase [1] = biological target: aromatase (Homo sapiens, UniProt P11511); test: Aromatase inhibition, (1,2-^3H) testosterone as substrate ([…]), microsomal fraction of human placental tissue; conditions: read-out: IC50 Aromatase Testosterone, 30° C., "None" = no inhibition
aromatase [2] = conditions: cited from earlier work

Row | Compound | IC50 (aromatase [1]) [µM] | inhibition in vivo of aromatase in peripheral tissue (aromatase [2])
1 | CCCCCCCCCCN1C(=O)CCC(CC)(c2ccncc2)C1=O (centres unmarked) | 10 | 
2 | CCC1(c2ccc(N)cc2)CCC(=O)NC1=O (centres unmarked) [Aminoglutethimide] |  | inhibit in vivo the activity of the enzyme aromatase in peripheral tissue

Continued, in another order:

Row | IC50 (aromatase [1]) [µM] | Compound | inhibition in vivo of aromatase in peripheral tissue (aromatase [2])
3 | 40 | CCCCN1C(=O)CCC(CC)(c2ccncc2)C1=O (centres unmarked) | 
4 | 6 | CCCC1(c2ccncc2)CCC(=O)NC1=O (centres unmarked) [R1=n-C3 H7, R2=H] | 
5 | 4 | CCCCC1(c2ccncc2)CCC(=O)NC1=O (centres unmarked) [R1=n-C4 H9, R2=H] | 
